Laboratory results published in publication PMC2994747 (2010).

Legend:
GammaA3 = assay: MTS cell viability assay; type: cell-based, mouse; settings: 96 h
[1] = system: Bcr/Abl and Src family kinases; settings: read-out: IC50, activation of Bcr/Abl and Src family kinases; calculated IC50; cited from earlier work

In the case of `Cc1nc(Nc2ncc(C(=O)Nc3c(C)cccc3Cl)s2)cc(N2CCN(CCO)CC2)n1` [Dasatinib, reference compound], the “IC50 lower than that of Si162” value (GammaA3) is listed as 20 fold and the IC50 [1] is listed as 1.83 nM.
